The target in the assay is Phosphorylated Parkin (phospho-Ser65 in the Ubl domain) (rat) (UniProt Q9JK66). The assay is described as follows: ITC; Parkin constructs titrated with UbcH7; 20°C; 50 mM Tris–HCl pH 7.4, 150 mM NaCl, 1 mM TCEP; stoichiometry fixed to 1:1. (In general: ITC needs no label: the signal is the heat of the interaction.)

Protein sequences, listed by entry. Tags and fused reporters are not part of them. Lines headed by an entry give the natural chain unless they say otherwise; changes in a name come on top.
UniProt Q9JK66: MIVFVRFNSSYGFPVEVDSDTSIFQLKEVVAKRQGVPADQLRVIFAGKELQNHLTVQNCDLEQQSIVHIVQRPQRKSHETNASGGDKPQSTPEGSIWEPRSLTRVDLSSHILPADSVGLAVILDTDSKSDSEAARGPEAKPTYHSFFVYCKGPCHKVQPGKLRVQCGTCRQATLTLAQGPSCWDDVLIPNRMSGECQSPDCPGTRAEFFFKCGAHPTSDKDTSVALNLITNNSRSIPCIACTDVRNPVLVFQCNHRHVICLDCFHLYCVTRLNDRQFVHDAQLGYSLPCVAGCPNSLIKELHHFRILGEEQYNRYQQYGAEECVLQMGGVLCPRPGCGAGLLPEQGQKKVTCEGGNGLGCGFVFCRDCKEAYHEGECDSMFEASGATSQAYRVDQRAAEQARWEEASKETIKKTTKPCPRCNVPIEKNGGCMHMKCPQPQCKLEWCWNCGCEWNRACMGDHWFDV

As usually defined, the Kd is the equilibrium constant for the complex coming apart. Turning to “UbcH7 (E2 ubiquitin-conjugating enzyme) (from UniProt P68036 1-154)”, the Kd turned out to be 161 µM.

For the origin of these results see publication PMC4609182.
